Drawing on US20200407467, this text covers Thrombi Fold Change for 1 substance.

Data set [1] deals with ABL2 peptide 1-90 (human library).
Data set [2] relates to CCDC86 peptide 136-225 (human library).
The subject of data set [3] is CCNI2 peptide 46-135 (human library).
The test system of data set [4] is GPALPP1 peptide 181-270 (human library).
Data set [5] has as its system LOC100287196 peptide 181-270 (human library).
Data set [6] has as its system LOC100290422 peptide 181-270 (human library).
The subject of data set [7] is MED13L peptide 991-1080 (human library).
In data set [8] the test system is MTIF2 peptide 91-180 (human library).
In data set [9] the test system is NOL7 peptide 1-90 (human library).
The test system of data set [10] is NSMCE3 peptide 1-90 (human library).
Data set [11] concerns NUP35 peptide 46-135 (human library).
The test system of data set [12] is PCDH20 peptide 91-180 (human library).
Data set [13] deals with PDLIM2 peptide 181-270 (human library).
Data set [14] deals with SIPA1L2 peptide 1531-1620 (human library).
Data set [15] has as its system SLAIN2 peptide 46-135 (human library).
In data set [16] the test system is TNNT2 peptide 1-90 (human library, SEQ ID NO: 27).
The test system of data set [17] is TNNT2 peptide 1-90 (human library, SEQ ID NO: 34).
Data set [18] relates to TNNT2 peptide 1-90 (human library, SEQ ID NO: 45).
In data set [19] the test system is TNNT2 peptide 46-135 (human library, SEQ ID NO: 26).
Data set [20] has as its system ZSCAN10 peptide 46-135 (human library).

Consider Thrombin, for which the Thrombi Fold Change amounted to 11.2 fold in [1]; 10.9 fold in data set [2]; 11 fold in [3]; 11.2 fold in data set [4]; 10.7 fold in [5]; 15.4 fold in data set [6]. In addition, the Thrombi Fold Change in [7] turned out to be 10.8 fold; in data set [8] it was 12.3 fold; in [9], 15.1 fold; in data set [10], 12.5 fold; in [11] it was 12.1 fold; in [12], 11.5 fold. For the same substance, the Thrombi Fold Change in data set [13] is 10.8 fold; in data set [14], 14.3 fold; in data set [15], 11.1 fold; in [16], 17.7 fold; in [17] it was 11.6 fold; in data set [18] it was 10.4 fold. In addition, the Thrombi Fold Change in data set [19] came out at 19.1 fold; in data set [20], 10.9 fold.
